According to PubChem BioAssay AID504357 (The Scripps Research Institute Molecular Screening Center, 2011):
The list shows a part of the results, in another mix than the full data. The source made the active and inactive calls. Rule as the data show it: active = inhibition above about 22% (passing the limit was not always enough); inactive = the rest.

Sequences of proteins named here, by UniProt entry; tags and fusion partners are left off.
UniProt P35372, whole entry, looked up: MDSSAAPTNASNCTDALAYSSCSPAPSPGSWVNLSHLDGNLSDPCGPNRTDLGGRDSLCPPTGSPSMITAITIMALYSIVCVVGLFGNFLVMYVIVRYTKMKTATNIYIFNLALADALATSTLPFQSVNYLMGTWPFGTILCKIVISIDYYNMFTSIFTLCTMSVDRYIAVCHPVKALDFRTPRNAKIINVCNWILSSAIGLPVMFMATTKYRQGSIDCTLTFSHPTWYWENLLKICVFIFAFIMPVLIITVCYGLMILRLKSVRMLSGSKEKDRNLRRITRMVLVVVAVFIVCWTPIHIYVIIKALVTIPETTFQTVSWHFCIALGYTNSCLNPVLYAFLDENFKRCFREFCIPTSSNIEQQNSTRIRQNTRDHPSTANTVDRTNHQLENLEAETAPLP
UniProt P41143, whole entry, looked up: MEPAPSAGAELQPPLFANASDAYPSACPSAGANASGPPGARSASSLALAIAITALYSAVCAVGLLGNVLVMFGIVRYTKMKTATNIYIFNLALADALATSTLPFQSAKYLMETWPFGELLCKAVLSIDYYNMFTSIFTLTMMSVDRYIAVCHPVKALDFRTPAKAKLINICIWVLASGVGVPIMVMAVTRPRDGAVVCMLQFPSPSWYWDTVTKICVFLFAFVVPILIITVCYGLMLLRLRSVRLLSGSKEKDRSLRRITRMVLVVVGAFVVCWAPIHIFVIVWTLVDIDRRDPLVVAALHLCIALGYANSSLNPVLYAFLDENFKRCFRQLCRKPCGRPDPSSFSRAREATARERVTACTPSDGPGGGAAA

Biological target: Mu-type opioid receptor (Homo sapiens) + Delta-type opioid receptor (Homo sapiens) (UniProt P35372+P41143)
Assay: OPRM1-OPRD1 heterodimer inverse agonism – cell-based, luminescence, primary screen (AID 504357);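 also: 0% = cells with DMSO and 100% = wells without cells with DMSO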
Conditions: cell-based MOR-DOR heterodimer luminescence, at 9.3 µM, active compounds read high

Structure (SMILES) | inhibition
O=C(Cn1cnc2c(OCc3ccccc3)ncnc21)NCCc1c[nH]c2ccccc12 | inactive: 3.19%
CC(C)CN(C(=O)Cn1c(C(F)(F)F)nc2ccccc21)c1c(N)n(Cc2ccccc2)c(=O)[nH]c1=O | inactive: 4.71%
COCCN(C(=O)Cn1c(C(F)(F)F)nc2ccccc21)c1c(N)n(Cc2ccccc2)c(=O)[nH]c1=O | inactive: 2.07%
Brc1ccc(/C=N/c2nc3ccccc3n2CCN2CCOCC2)cc1 | inactive: 3.6%
c1coc(CNc2nc3ccccc3n2CCN2CCOCC2)c1 | inactive: -3.87%
CC1(CBr)Cn2c(nc3ccccc3c2=O)S1 (stereo not drawn) | inactive: 11.1%
Fc1ccc(Cn2nnnc2CN2CCC(n3nnc4cc(C(F)(F)F)ccc43)CC2)cc1 | inactive: -0.79%
CN(C)CCCNC(=S)N1CCn2c(nc3ccccc32)C1 | inactive: 15%
CC1CN(C(=O)Cn2c(C(F)(F)F)nc3ccccc32)CC(C)O1 (stereo not drawn) | inactive: -5.51%
O=C(CCCCCNC(=O)N1CCn2c1nc1ccccc12)N[C@H](Cc1ccccc1)C(=O)O | inactive: 16.5%
CC(CNC(=O)Cn1cnc2c(OCc3ccccc3)ncnc21)c1ccccc1 (stereo not drawn) | inactive: 16.4%
Cn1c(=O)n(Cc2ccccc2F)c(=O)c2c1nc1n2CCN1Cc1ccco1 | inactive: 12.9%
NC(=O)CC(NC(=O)Cc1ccc(Cl)cc1)c1ccc(NC2CCN(Cc3ccccc3)CC2)c([N+](=O)[O-])c1 (stereo not drawn) | inactive: 6.29%
CCc1cccc(NC(=O)Cn2c3[n+](c4ccc(C(F)(F)F)cc42)CCCCC3)c1 | inactive: 14.6%
Cc1nc2ccccc2n1CC(=O)N/N=C\C=C\c1ccccc1 | inactive: 10.2%
CS(=O)(=O)N1CCn2c1nc1ccccc12 | inactive: 0.53%
CCN(CC)CCn1c(NCc2ccco2)nc2ccccc21 | inactive: 3.89%
CC(C)C[C@H](NC(=O)N1CCn2c1nc1ccccc12)C(=O)NCc1ccc2c(c1)OCO2 | inactive: 2.99%
Cc1ccc(OCC(O)Cn2c(=N)n(CCN3CCCCC3)c3ccccc32)cc1 (stereo not drawn) | inactive: -4.43%
N=c1n(CCN2CCCCC2)c2ccccc2n1CC(O)c1cccc(Br)c1 (stereo not drawn) | inactive: -15.4%
COC(=O)[C@H](Cc1ccccc1)NC(=O)Cn1cnc2c(OCc3ccccc3)ncnc21 | inactive: 7.91%
COc1cccc(NC(=S)N2CCn3c(nc4ccccc43)C2)c1 | inactive: 6.32%

Structure (SMILES) | inhibition
O=C(CCNC(=O)N1CCn2c1nc1ccccc12)NCc1ccccc1 | inactive: 12.6%
Cc1ccc(NC(=O)C2CC(=O)Nc3nc4ccccc4n32)c(C)c1 (stereo not drawn) | inactive: 7.2%
Cc1ccc2c(c1)C1CN(C)CCC1N2C(=O)c1cccc(S(=O)(=O)N2CC(C)CC(C)C2)c1 (stereo not drawn) | inactive: -9.42%
COc1ccc(N(C(=O)Cn2cnc3ccccc32)C(C(=O)NC2CCCCC2)c2ccccc2)cc1 (stereo not drawn) | inactive: 8.97%
Cn1c(=O)c2ncn(CC(=O)N/N=C/C=C/c3ccccc3)c2n(C)c1=O | inactive: 14.6%
CCN(CC)c1ccc(CNc2nc3ccccc3n2CCN2CCCCC2)cc1 | inactive: -244%
COc1ccccc1C(=O)Nc1ccc2c(c1)nc1n2CCN(Cc2ccccc2)C1 | inactive: -8.17%
COc1ccccc1CNC(=O)COC(=O)C(O)(c1ccccc1)c1ccccc1 | inactive: 9.52%
Cn1c(=O)c2c(nc(N3CCCCC3)n2CCNC2=NCCC2)n(C)c1=O | inactive: 15.1%
O=C(Cn1cnc2c(OCc3ccccc3)ncnc21)N[C@H](CO)Cc1cc2ccccc2[nH]1 | inactive: 13.9%
Cn1c(=O)c2ncn(CC(=O)NCCOc3ccc(C(C)(C)C)cc3)c2n(C)c1=O | inactive: 10.1%
O=C(CSc1nc2ccccc2n1CC(=O)NCc1ccccc1)NCc1ccco1 | inactive: 12.3%
CC(=O)Nc1ccc(NC(=O)C2CC(=O)Nc3nc4ccccc4n32)cc1 (stereo not drawn) | inactive: 13%
CCN1C(=O)CC(N2CCC(Nc3ccc(OC)cc3)CC2)C1=O (stereo not drawn) | inactive: 2.75%
COc1ccc(Cl)cc1NC(=O)Cn1c(NCCO)nc2ccccc21 | inactive: 7.38%
CCCC1OP(=O)(Nc2ccccc2)OCC1CC (stereo not drawn) | inactive: 10.5%
O=S(=O)(Nc1ccc2c(c1)nc1n2CCN(Cc2ccccc2)C1)c1ccccc1 | inactive: 14.4%
O=S(=O)(c1ccc(Cl)c(Cl)c1)N1CCc2nc3ccccc3n2CC1 | inactive: 6.06%
Cn1c(=O)c2c(ncn2CC(=O)N/N=C/C=C/c2ccccc2)n(C)c1=O | inactive: 5.4%
CC1CC(C)CN(Cc2nc3c(c(=O)n(C)c(=O)n3C)n2CCN2CCOCC2)C1 (stereo not drawn) | inactive: -8.04%
COc1ccc(CN(C)C(=O)Cn2cnc3c(SC)nc(N)nc32)cc1OC | inactive: 13.1%
O=S(=O)(c1ccc(Br)cc1)N1CCn2c(nc3ccccc32)C1 | inactive: -0.08%

Structure (SMILES) | inhibition
CCN(c1ccccc1)S(=O)(=O)c1ccc(OC)c(NC(=O)Cn2cnc3c2c(=O)n(C)c(=O)n3C)c1 | inactive: 8.3%
COc1cccc(C(=O)N2CCn3c2nc2ccccc23)c1 | inactive: 15.9%
COc1ccc(Cc2nc3ccccc3n2CC(=O)N/N=C/c2ccc(C)cc2O)cc1OC | inactive: -4.58%
CN1CN(c2ccccc2)C2(CCN(CCCSc3ccccc3NC(=O)/C=C/c3ccccc3)CC2)C1=O | inactive: -80%
COc1cccc(NC(=O)Cn2c(SCC(=O)N3CCOCC3)nc3ccccc32)c1 | inactive: 6.16%
O=C(/C=C/c1ccccc1)OC1CN2CCC1CC2 (stereo not drawn) | inactive: 14.4%
CC1CCC(C(C)C)C(OP(=O)(Nc2ccccn2)c2ccccc2)C1 (stereo not drawn) | inactive: -33.3%
CCN(CC)C(=O)Cn1c(=O)n(C)c2ccccc21 | inactive: -2.95%
Cc1ccc(C(=O)OC2CN3CCC2CC3)cc1 (stereo not drawn) | inactive: 8.83%
CCN(CC)c1ccc(NC(=O)Cn2c(C(C)NC(=O)c3ccccc3)nc3ccccc32)cc1 (stereo not drawn) | inactive: -0.32%
Cc1cccc(Cn2c(=O)c3c(nc4n3CCN4Cc3ccco3)n(C)c2=O)c1 | inactive: 14.4%
Cc1nn(-c2ccccc2)c2c1P(=O)(N1CCOCC1)N(C)C(c1ccccc1)=N2 (stereo not drawn) | inactive: 4.97%
CCCC(=O)Nc1ccc(C(=O)/C=C/c2ccc(SC)cc2)cc1 | inactive: -5.67%
CCn1cc(Cl)c(C(=O)Nc2nc3ccccc3n2CCN2CCCCC2)n1 | inactive: 3.65%
c1ccc2c(c1)nc(-c1ccncc1)n2CCNc1nc(CN2CCCCC2)cs1 | inactive: 21%
Cc1cccc(C)c1NC(=O)N1CCC(n2c(=O)[nH]c3ccccc32)CC1 | inactive: 10.4%
O=C(Cn1c(C(F)(F)F)nc2ccccc21)NCCN1CCCC1 | inactive: 1.32%
O=C(Cn1cnc2ccccc21)Nc1cc(C(F)(F)F)ccc1N1CCOCC1 | inactive: 0.19%
O=C(Cn1c(=O)n(CC2CS2)c2ccccc21)N1CCCCCC1 (stereo not drawn) | inactive: -4.13%
CC(C)(C)NC(=O)Cn1c(SCC(=O)NCc2cccs2)nc2ccccc21 | inactive: 18.7%
O=C(Cn1c(SCC(=O)N2CCc3ccccc32)nc2ccccc21)NC1CCCC1 | inactive: 3.99%
Cc1ccc(NC(=O)Cn2cnc3c(NCc4ccccc4)ncnc32)cc1C | inactive: 9.81%

Structure (SMILES) | inhibition
Cn1c(=O)c2ncn(CC(=O)NCCOCc3ccccc3Cl)c2n(C)c1=O | inactive: 16.3%
O=C(Cn1c(-c2ccccc2Cl)nc2ccccc21)Nc1cccc(Cl)c1 | inactive: 3.64%
Cn1c(=O)c2c(ncn2CC(=O)Nc2ccccc2Sc2ccccc2)n(C)c1=O | inactive: 18.7%
Cn1c(=O)c2c(ncn2CC(=O)Nc2ccc(Cl)cc2Cl)n(C)c1=O | inactive: 11%
COc1ccccc1N1CCN(C(=O)Cn2cnc3c2c(=O)n(C)c(=O)n3C)CC1 | inactive: 17.2%
Cn1c(=O)[nH]c(=O)c2c1nc(CN1CCN(c3cccc(Cl)c3)CC1)n2CCN1CCOCC1 | inactive: -2.72%
CSc1nc(N)nc2c1ncn2CC(=O)NCC1CCCO1 (stereo not drawn) | inactive: 19.8%
CCOCN(C(=O)Cn1c(COC)nc2ccccc21)c1c(C)cccc1CC | inactive: 9.44%
Cc1ccc2c(c1)C1C[N+](C)(CC(=O)Nc3ccccc3Cl)CCC1N2C(=O)c1ccccc1Cl (stereo not drawn) | inactive: 12.9%
Nc1cccc([As](=O)(O)c2ccccc2)c1 | inactive: 16.5%
Cc1ccc(S(=O)(=O)N2CCN(C(=O)Cn3cnc4c3c(=O)n(C)c(=O)n4C)CC2)cc1C | inactive: 3.59%
Cc1ccc2c(c1)C1CN(C)CCC1N2C(=O)Cn1nnc(-c2ccccc2F)n1 (stereo not drawn) | inactive: 6.02%
Cn1c(CNc2nc3ccccc3n2CCN2CCCCC2)nc2ccccc21 | inactive: 0.23%
CCC(=O)N1CCn2c1nc1ccccc12 | inactive: 9.93%
NC(=O)Cn1c(S(=O)(=O)Cc2ccccc2)nc2ccccc21 | inactive: 11.9%
O=[As](O)(c1cccs1)c1cccs1 | inactive: 17.3%
CCc1ccccc1NC(=O)CSc1nc2ccccc2n1CC(=O)N1CCCC1 | inactive: 1.89%
Cc1ccc(OCC(=O)OC2CN3CCC2CC3)cc1 (stereo not drawn) | inactive: 9.21%
C[C@H](O)[C@@H]1C(=O)N2CCc3ccc(N4CCN(C)CC4)cc3[C@@H]2C[C@@H]1N(C)C(=O)Nc1cc(Cl)cc(Cl)c1 | inactive: 6.34%
Cc1ccc(C(=O)N(C)c2ccc(OCC(=O)N3c4ccc(C)cc4C4CN(C)CCC43)cc2)cc1 (stereo not drawn) | inactive: 10.3%
COC(=O)[C@H](Cc1ccc(O)cc1)NC(=O)Cn1cnc2c(OCc3ccccc3)ncnc21 | inactive: 5.03%
CC(C)C[C@H](NC(=O)N1CCn2c1nc1ccccc12)C(=O)NCc1ccco1 | inactive: 10.5%
